For one compound, inhibition results are on record in patent publication US7781592B2, “Thione derivative, method for the preparation thereof, and pharmaceutical composition containing the same” (CJ Cheiljedang Corporation, priority 2003, dated 2010).

For this assay, the target named is T1, COX-2 (Mus musculus, UniProt Q05769).
T1 construct: host or cells: RAW 264.7 cells, pre-treated with aspirin, then induced with interferon and LPS
T1 sequence (Q05769 18-604): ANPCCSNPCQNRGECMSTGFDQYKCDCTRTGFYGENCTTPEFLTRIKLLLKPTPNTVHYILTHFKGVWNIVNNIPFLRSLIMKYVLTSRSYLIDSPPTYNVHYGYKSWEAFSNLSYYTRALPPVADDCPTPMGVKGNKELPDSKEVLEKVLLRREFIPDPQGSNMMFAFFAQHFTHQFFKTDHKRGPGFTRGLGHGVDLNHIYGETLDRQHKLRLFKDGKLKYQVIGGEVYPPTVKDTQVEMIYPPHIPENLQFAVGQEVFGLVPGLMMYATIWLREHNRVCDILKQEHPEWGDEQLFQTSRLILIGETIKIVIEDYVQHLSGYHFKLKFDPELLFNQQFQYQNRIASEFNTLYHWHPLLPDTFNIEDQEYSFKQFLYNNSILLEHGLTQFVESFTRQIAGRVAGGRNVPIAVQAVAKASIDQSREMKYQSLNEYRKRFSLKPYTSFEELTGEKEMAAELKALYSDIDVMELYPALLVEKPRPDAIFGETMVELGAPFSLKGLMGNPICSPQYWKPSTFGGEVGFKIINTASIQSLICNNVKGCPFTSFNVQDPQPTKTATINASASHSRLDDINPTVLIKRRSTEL
Nature of the assay: Assay for the COX-2 inhibitory activity using Raw 264.7 cell line (PGE2 inhibition). It counts as cell-based. The following applies: RAW264.7; test compound 30 nM; RAW 264.7 cells; aspirin pre-treated, interferon + LPS 18 hours; PGE2 by EIA; read-out: Cyclooxygenase (COX) Inhibition (%) COX-2 (30 nM). On the procedure: Each well was treated with 250 μM of aspirin and incubated at 37° C. for 2 hours. After the culture media were replaced with new culture media, the new culture media were treated with a test compound (30 nM) and incubated for 30 minutes. Then, each well was treated with interferon ? (100 units/ml) and lipopolysaccharide (LPS, 100 ng/ml) and incubated for 18 hours. The culture media were transferred to other test tubes. The concentration of PGE2 was quantified by means of the EIA kit (Cayman Chemicals).
The percentages of the COX inhibition were calculated according to the following equation: % Inhibition=(concentration of PGE2 in test compound-untreated sample−concentration of PGE2 in test compound-treated sample)/(concentration of PGE2 in test compound-untreated sample)×100

For the compound `Cc1onc(-c2ccccc2)c1-c1ccc(S(N)(=O)=O)cc1` [Reference (Valdecoxib), Valdecoxib, reference compound], the inhibition at 0.03 µM is 19%.

As a reminder, the inhibition is the change of the read-out against control, counted positive when it falls.
